Earlier results, collected in patent US6664372B1, “Azatide peptidomimetics” (The Scripps Research Institute, priority 1996, dated 2003).
pKd: −log10 of the molar value.

Molecular target: Monoclonal antibody 3-E7
Settings: read-out: Kd for binding to monoclonal antibody 3-E7; cited from earlier work

Tyr-Gly-Gly-Phe-Leu [[Leu^5]-enkephalin]
pKd: 8.15
